Source: patent US6660742B2, “Compositions and methods of the use thereof achiral analogues of CC-1065 and the duocarmycins” (priority 2000, dated 2003)

Tested on: NCI-H322M
Test: NCI screen, NCI-H322M (Non-Small Cell Lung Cancer)

## COC(=O)c1[nH]c2c(O)cc(NC(=O)c3cc4cc(OC)c(OC)c(OC)c4[nH]3)c(CCCl)c2c1C(=O)OC [Compound 22, Dimethyl 4-(2-chloroethyl)-7-hydroxy-5-(5,6,7-trimethoxyindole-2-carboxamido)indole-2,3-dicarboxylate]
48 hour exposure
  TGI: 2.38E−06 Molar
Log10 Concentration −4.3, 48 hour exposure
  Percent Growth: −22%
